The chains behind the UniProt entries cited, without tags or fusion partners.
UniProt P52333, whole entry, species assumed: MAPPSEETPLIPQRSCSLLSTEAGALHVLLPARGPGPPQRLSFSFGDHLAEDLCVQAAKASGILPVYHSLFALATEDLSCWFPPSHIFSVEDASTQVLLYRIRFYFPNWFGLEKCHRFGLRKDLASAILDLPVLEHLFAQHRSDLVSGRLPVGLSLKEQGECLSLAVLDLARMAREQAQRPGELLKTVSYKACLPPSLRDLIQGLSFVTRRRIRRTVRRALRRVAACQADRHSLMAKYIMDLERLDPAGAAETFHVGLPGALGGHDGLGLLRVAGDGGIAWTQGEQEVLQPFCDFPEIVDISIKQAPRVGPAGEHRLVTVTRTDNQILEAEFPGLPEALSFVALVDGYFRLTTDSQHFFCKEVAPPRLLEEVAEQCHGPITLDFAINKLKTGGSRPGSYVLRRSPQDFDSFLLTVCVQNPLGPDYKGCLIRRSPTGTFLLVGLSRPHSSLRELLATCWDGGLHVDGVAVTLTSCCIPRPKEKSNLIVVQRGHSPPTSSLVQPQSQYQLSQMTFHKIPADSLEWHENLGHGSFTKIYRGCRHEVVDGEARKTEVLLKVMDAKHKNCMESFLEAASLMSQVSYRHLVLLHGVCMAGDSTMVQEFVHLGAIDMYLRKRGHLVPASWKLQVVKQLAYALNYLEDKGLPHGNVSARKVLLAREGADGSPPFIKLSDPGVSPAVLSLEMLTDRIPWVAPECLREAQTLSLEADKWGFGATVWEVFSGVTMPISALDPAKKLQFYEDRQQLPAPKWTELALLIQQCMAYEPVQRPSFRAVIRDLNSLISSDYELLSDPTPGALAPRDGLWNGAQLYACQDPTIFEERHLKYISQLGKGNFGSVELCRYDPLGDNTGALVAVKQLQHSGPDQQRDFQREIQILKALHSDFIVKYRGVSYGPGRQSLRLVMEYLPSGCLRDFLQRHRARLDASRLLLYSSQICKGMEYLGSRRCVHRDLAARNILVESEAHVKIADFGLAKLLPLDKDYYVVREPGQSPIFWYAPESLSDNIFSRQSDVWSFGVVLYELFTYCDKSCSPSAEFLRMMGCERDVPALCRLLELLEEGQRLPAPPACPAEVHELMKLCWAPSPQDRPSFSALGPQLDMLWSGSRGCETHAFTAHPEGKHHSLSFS

In patent publication US9617258B2, “Pyrrolo[2,3-d]pyrimidinyl, pyrrolo[2,3-b]pyrazinyl and pyrrolo[2,3-d]pyridinyl acrylamides” (Pfizer Inc., priority 2013, dated 2017):

Molecular target: JAK3 enzyme (Homo sapiens (Human), UniProt P52333)
Assay: JAK Caliper enzyme assay at 1 mM ATP
Format: biochemical
Settings: read-out: JAK3 (1 mM ATP) IC50
Procedure: JAK Caliper Enzyme Assay at 4 μM or 1 mM ATP
Test article was solubilized in dimethyl sulfoxide (DMSO) to a stock concentration of 30 mM. An 11-point half log dilution series was created in DMSO with a top concentration of 600 μM. […] The compound plates were diluted 1 to 60 resulting in a top final assay compound concentration of 10 μM and a 2% DMSO concentration.
Test article and assay controls were added to a 384-well plate. Reaction mixtures contained 20 mM HEPES, pH 7.4, 10 mM magnesium chloride, 0.01% bovine serum albumin (BSA), 0.0005% Tween 20, 4 μM or 1 mM ATP and 1 μM peptide substrate. […] The assays were initiated by the addition 1 nM JAK3 enzyme and were incubated at room temperature 75 minutes for JAK3. Enzyme concentrations and incubation times were optimized for each new enzyme preps and were modified slightly over time to ensure 20%-30% phosphorylation. The assays were stopped with a final concentration of 10 mM EDTA, 0.1% Coating Reagent and 100 mM HEPES, pH=7.4. The assay plates were placed on a Caliper Life Science Lab Chip 3000 (LC3000) instrument, and each well was sampled using appropriate separation conditions to measure the unphosphorylated and phosphorylated peptide.

## C=CC(=O)N[C@H]1CCN(c2cnc3[nH]cc(C(=O)NC(C)C)c3n2)C1 [Example 194, 2-[(3S)-3-(acryloylamino)pyrrolidin-1-yl]-N-(propan-2-yl)-5H-pyrrolo[2,3-b]pyrazine-7-carboxamide]
  IC50: 1.66 µM
